Data: ChEMBL document CHEMBL2439983, “The discovery and optimization of novel dual inhibitors of topoisomerase II and histone deacetylase” (Bioorg Med Chem, 2013)

Amino acid sequences for entries named in this document (tags omitted). A change or cut given only in a name is not applied to a line headed by its entry.
UniProt O15379: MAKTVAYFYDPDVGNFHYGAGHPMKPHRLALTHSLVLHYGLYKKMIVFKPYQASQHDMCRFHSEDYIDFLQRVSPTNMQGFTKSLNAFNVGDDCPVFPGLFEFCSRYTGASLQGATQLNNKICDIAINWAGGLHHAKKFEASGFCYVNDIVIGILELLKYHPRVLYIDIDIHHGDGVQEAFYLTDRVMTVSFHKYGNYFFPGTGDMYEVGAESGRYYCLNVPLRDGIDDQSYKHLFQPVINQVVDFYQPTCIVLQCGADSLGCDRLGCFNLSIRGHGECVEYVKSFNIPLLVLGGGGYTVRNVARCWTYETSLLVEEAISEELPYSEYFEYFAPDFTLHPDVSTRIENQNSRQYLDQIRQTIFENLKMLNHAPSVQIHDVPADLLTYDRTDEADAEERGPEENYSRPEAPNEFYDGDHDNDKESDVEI
UniProt Q13547, whole entry: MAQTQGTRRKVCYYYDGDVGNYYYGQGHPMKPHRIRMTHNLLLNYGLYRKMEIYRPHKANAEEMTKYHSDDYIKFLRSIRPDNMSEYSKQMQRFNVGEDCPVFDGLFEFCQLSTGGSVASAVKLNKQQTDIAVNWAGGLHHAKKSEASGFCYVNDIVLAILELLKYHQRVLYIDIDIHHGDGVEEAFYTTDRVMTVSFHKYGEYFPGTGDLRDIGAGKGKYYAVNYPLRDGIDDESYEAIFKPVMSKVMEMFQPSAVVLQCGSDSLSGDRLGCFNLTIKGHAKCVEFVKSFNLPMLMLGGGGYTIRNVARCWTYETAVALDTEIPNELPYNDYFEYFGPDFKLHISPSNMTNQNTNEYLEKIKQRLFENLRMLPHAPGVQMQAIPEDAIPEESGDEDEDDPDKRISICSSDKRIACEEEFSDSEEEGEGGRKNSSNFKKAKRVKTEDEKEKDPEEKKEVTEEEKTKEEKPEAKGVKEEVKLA

Experiments:
[1] = target: T1, Protein deacetylase HDAC6 (Homo sapiens) (UniProt Q9UBN7); experiment: Potency index, ratio of vorinostat IC50 to compound IC50 for human recombinant HDAC6
T1 sequence (whole entry): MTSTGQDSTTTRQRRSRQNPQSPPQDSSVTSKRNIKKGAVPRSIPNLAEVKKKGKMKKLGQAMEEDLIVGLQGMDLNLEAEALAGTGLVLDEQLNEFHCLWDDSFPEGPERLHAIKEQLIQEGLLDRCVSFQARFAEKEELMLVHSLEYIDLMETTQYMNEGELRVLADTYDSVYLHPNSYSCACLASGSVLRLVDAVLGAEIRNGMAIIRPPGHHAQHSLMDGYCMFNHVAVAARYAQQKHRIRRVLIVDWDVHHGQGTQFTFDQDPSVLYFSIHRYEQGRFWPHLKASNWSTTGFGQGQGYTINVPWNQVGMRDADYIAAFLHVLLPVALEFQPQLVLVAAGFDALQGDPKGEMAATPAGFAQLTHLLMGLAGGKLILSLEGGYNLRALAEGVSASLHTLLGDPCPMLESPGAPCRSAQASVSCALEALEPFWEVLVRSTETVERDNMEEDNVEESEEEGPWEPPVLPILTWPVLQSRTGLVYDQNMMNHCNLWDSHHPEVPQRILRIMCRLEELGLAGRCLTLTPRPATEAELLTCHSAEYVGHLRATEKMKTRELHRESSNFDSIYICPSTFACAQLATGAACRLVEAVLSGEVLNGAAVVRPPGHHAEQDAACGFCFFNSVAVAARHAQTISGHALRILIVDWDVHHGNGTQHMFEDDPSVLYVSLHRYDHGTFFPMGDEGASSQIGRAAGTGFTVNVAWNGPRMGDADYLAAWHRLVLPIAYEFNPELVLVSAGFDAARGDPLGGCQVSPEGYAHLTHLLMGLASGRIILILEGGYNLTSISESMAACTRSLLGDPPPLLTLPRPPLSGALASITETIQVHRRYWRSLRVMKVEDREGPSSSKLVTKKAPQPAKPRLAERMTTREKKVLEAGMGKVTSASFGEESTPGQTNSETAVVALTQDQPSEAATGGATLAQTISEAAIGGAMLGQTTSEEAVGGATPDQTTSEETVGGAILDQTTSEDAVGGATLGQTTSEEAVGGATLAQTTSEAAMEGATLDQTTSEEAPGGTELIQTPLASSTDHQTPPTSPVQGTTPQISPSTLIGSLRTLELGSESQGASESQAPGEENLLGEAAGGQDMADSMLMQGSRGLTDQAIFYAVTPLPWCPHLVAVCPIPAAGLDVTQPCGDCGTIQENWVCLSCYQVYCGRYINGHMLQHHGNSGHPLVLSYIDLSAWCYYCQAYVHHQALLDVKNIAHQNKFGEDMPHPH

Histone deacetylase 3 = Histone deacetylase 3 (Homo sapiens, UniProt O15379); experiment: Potency index, ratio of vorinostat IC50 to compound IC50 for human recombinant HDAC3
Histone deacetylase 1 = Histone deacetylase 1 (Homo sapiens, UniProt Q13547); experiment: Potency index, ratio of vorinostat IC50 to compound IC50 for human recombinant HDAC1

Measured: Ratio IC50

COc1cc([C@@H]2c3cc4c(cc3[C@@H](Nc3cccc(OCCCCCCC(=O)NO)c3)[C@H]3COC(=O)[C@H]23)OCO4)cc(OC)c1O
10: all assays above
